Experimental data from BindingDB's records for patent US9540388 (Janssen Pharmaceutica NV, 2017).

Amino acid sequences for entries named in this document (tags omitted). A change or cut given only in a name is not applied to a line headed by its entry.
UniProt Q99572: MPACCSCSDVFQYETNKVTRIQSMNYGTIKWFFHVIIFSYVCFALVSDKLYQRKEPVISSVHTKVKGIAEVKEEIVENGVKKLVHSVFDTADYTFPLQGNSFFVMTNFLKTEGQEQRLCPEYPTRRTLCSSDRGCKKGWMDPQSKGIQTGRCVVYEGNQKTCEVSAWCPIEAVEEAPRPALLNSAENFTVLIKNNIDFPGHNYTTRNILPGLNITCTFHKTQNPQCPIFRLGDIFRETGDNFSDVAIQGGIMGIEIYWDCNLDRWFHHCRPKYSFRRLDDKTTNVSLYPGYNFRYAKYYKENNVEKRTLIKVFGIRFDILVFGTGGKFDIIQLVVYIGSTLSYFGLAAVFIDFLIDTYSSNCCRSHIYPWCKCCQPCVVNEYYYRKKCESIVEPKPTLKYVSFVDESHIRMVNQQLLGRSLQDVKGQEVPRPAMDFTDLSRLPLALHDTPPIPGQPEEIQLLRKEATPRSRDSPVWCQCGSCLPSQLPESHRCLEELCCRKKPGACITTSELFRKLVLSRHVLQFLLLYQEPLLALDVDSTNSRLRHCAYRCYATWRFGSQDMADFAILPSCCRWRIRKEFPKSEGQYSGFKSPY

Tests used:
[1] = target: T1, P2X purinoceptor 7 (Rattus norvegicus, UniProt Q64663); test: Radioligand Binding Assay
T1 sequence (Q64663 whole entry): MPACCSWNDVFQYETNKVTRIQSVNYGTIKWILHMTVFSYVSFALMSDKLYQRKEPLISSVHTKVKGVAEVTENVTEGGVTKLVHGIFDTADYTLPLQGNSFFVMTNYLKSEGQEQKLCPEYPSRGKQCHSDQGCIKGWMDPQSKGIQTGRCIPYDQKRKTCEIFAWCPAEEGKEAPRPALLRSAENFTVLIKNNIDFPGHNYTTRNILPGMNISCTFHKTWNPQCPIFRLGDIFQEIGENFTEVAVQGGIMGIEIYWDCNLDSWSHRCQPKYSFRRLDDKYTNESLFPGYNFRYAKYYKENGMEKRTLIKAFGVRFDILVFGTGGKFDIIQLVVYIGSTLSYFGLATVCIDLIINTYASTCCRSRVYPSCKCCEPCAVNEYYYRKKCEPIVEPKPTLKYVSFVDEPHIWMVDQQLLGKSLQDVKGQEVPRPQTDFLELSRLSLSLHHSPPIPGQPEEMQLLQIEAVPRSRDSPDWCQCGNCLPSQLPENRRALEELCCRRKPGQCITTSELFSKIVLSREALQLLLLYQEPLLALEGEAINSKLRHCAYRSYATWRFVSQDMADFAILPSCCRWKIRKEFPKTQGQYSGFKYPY
Experimental: (§1) human or rat P2X7-1321N1 cells were collected and frozen @−80° C. On the day of the experiment, cell membrane preparations were made according to standard published methods. The total assay volume was 100 μl:10 μl compound (10×)+(b) 40 μl tracer (2.5×)+50 μl membrane (2×). The tracer used for the assay was tritiated A-804598. The compound can be prepared as described in the literature. […] The assay was terminated by filtration (GF/B filters pre-soaked with 0.3% PEI) and washed with washing buffer (Tris-HCl 50 mM). The IC50 generated in the binding assay was corrected for tracer concentration and affinity of the tracer to derive at the affinity (Ki) of the test compounds.

[2] = target: P2X purinoceptor 7 (Homo sapiens, UniProt Q99572); test: Radioligand Binding Assay
Experimental: as §1

Row | SMILES | IC50 [1] [nM] | IC50 [2] [nM]
1 | O=C(c1cccc(C(F)(F)F)c1Cl)N1[C@@H]2CCC[C@H]1c1nnc(-c3ccc(F)cn3)n1C2 (single isomer, unassigned) [US9540388, 12] | 14800 | 
2 | O=C(c1cccc(C(F)(F)F)c1Cl)N1C2CCCC1c1nnc(-c3ncccn3)n1C2 (stereo not drawn) [US9540388, 1] |  | 50
3 | O=C(c1ccnc(C(F)(F)F)c1Cl)N1[C@@H]2CCC[C@H]1c1nnc(-c3cccs3)n1C2 (single isomer, unassigned) [US9540388, 36] |  | 11
